From patent US11236082B2, “EZH2 inhibitors and uses thereof” (Dana-Farber Cancer Institute, Inc., priority 2014, dated 2022)

Biological target: T1, NSD2 (Homo sapiens, UniProt O96028)
T1 sequence (O96028 1-1365): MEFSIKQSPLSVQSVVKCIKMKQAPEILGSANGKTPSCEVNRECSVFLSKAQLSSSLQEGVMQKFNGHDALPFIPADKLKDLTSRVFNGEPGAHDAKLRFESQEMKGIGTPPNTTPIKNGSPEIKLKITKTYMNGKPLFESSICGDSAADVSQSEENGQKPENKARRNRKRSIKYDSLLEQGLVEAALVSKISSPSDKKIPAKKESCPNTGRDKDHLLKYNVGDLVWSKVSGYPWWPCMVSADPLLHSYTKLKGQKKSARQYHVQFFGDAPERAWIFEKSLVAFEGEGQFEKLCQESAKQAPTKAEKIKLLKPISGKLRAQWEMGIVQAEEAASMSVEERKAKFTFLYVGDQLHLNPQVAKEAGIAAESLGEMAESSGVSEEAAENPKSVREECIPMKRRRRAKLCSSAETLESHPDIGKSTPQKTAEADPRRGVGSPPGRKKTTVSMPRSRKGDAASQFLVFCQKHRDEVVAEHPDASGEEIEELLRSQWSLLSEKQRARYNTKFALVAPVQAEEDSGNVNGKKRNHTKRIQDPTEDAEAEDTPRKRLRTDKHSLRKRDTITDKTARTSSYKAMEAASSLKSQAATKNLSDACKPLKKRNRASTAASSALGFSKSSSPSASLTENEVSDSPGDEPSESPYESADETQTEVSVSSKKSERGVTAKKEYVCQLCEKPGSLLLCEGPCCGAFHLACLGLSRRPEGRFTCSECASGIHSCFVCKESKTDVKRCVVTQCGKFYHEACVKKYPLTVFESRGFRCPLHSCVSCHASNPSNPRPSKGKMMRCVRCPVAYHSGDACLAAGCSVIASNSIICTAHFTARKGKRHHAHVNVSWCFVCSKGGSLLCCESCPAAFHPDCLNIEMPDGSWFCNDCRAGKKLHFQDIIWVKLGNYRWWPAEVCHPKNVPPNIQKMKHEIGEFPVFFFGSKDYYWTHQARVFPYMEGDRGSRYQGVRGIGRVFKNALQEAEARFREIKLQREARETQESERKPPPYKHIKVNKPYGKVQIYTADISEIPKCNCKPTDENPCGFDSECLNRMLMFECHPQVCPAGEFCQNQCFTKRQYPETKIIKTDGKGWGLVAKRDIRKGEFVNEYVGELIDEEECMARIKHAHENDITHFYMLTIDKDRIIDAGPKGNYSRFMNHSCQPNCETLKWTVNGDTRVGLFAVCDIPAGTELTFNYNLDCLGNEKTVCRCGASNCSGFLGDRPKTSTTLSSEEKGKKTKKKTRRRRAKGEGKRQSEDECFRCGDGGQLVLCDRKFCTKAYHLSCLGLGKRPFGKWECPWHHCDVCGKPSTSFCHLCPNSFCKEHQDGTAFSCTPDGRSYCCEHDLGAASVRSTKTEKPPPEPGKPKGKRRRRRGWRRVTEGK
Assay: HMT panel profiling
Type: biochemical

Structure (SMILES): Nc1ncnc2c1ncn2[C@@H]1O[C@H](CSCC[C@H](N)C(=O)O)[C@@H](O)[C@H]1O [SAH, S-adenosyl-homocysteine]
- IC50: 7.49 µM
